hiPSC survival: hiPSC single-cell survival enhancement | 360,000 tested, 0.044% active | survival enhancement, % at 20 µM | ATPlite luminescence; 100% = ROCK inhibitor wells, 0% = DMSO | AID 602274; in the data active means survival enhancement above about 18%;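 further: cells exposed to compounds for 16 hours before the ATP read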
FN deposition inh: fibronectin deposition inhibition; 350,000 tested, 0.086% active; AH1F fibroblasts, Alexa488-fibronectin deposition fluorescence, overnight; inhibition, % at 12.6 µM; AID 743247;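 active means mean inhibition across replicates of 30% or more, regardless of how many single replicates reach that level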;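 further: positive control wells lacked labelled fibronectin entirely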
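Assay system: AH1F fibroblasts assembling fluorescent fibronectin matrix; Amount: 10000 AH1F cells per well; Buffer or medium: DMEM, 2% serum; Probe or stimulus: Alexa488-fibronectin, 24 nM final in well; Doses: single compound dose, delivered by pin transfer; Incubation: 1 h adhesion, overnight exposure; Measured by: fluorescence 485/525 nm; Read-out: fibronectin deposition inhibition.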
UUG fidelity: modulators of yeast start codon fidelity, primary screen, whole organism, S. cerevisiae, single point, plate reader | AID 602363, 2012 | S. cerevisiae UUG-firefly luciferase reporter, luminescence/redox ratio | activity score, % at 18.7 µM | hit rate 0.13% among 350,000;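 active = replicate mean at a twofold rise or more, about +100% in these data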;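 also: firefly luciferase made from a UUG start codon reports start codon fidelity; reporter light over untreated wells divided by growth signal over untreated wells; some hits fall short of that in this replicate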
PGC1a acetyl inh: modulators of PGC1a acetylation; 350,000 tested, 0.17% active; AID 651687; inhibition, % at 15.6 µM; U2OS PGC1a acetylation, AlphaScreen anti-acetyl-lysine; with virally co-expressed GCN5 acetyltransferase;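 active means every replicate shows inhibition of at least 40%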;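 further: 0% = neutral control wells and 100% = positive control wells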
Statin myotox sup: protects C2C12 myotubes from simvastatin toxicity; ATP luminescence, 48 h; scaled: DMSO 0, geranylgeraniol control 100; rescue of ATP level, % at 7.49 µM; 330,000 tested, 0.78% active;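 active means mean ATP rescue above about 67%, or every replicate alone reaching that limit, limit read from the data, passing the limit was not always enough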;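 further: myotubes were challenged with 10 µM simvastatin during compound exposure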
The depositor's hits bear a star; nt = no result given. An excerpt weighted towards active compounds, which were near 0.91% of everything screened.

Value order: UUG fidelity | Statin myotox sup | PGC1a acetyl inh | FN deposition inh | hiPSC survival
1. Cc1ccc(C(=O)Nc2cc(Cl)ccc2-n2cncn2)s1
→ nt | 7 | nt | -6 | 0
2. COc1ccc(S(=O)(=O)Nc2ccc3c(c2)CC(=O)N([C@@H](C)CO)C[C@@H](C)[C@H](CN(C)C(=O)Nc2ccc(C(F)(F)F)cc2)O3)cc1
→ 11 | -3 | 2 | nt | nt
3. COc1cc(C)c(Cl)cc1S(=O)(=O)NCCN1CCOCC1
→ 46 | 123* | -12 | nt | 4
4. Cc1cc(C)cc(-n2c(O)c(C=NC3CCS(=O)(=O)C3)c3ccccc3c2=O)c1 (stereo unspecified)
→ -25 | -11 | -2 | 2 | 1
5. Cc1cccc(-n2c(O)c(C=NC3CCS(=O)(=O)C3)c3ccccc3c2=O)c1 (stereo unspecified)
→ -19 | 138* | -6 | nt | -2
6. Nc1nc(-c2cc3c(cc2Cl)OCCO3)cs1
→ -8 | 19 | -4 | 32* | 0
7. CC1(C)Cc2c(C#N)c(NCC3CCCO3)nc(-c3ccco3)c2CO1 (stereo unspecified)
→ -15 | -56 | -16 | nt | 20*
8. O=C(CN1CCOCC1)NCC[C@H]1CC[C@H](NC(=O)Nc2ccc(Cl)cc2)[C@H](CO)O1
→ 11 | 5 | 1 | nt | nt
9. COc1ccc(C(=O)N2c3ccc(F)cc3CCC2C)cc1OC (stereo unspecified)
→ 0 | 5 | -1 | 6 | -1
10. COc1cc(OC)cc(C(=O)N2c3ccc(F)cc3CCC2C)c1 (stereo unspecified)
→ -5 | 90* | -13 | 3 | -4
11. C=CCc1ccccc1OCCCCN1CCCC1
→ -14 | 80* | -4 | nt | -2
12. CCc1ccccc1OCCCCN1CCCC1
→ -8 | nt | -14 | nt | 0
13. O=C(NC1CCCC1)C(c1ccsc1)N(Cc1ccco1)C(=O)Cc1cccs1 (stereo unspecified)
→ 4 | 118* | -22 | nt | 0
14. Fc1ccc(COc2cccc3cccnc23)cc1
→ nt | nt | -2 | -17 | 0
15. Cc1oc(C(=O)O)cc1COc1cccc2cccnc12
→ nt | 124* | -3 | nt | -3
16. N#C[C@@H]1[C@@H](c2ccc(C3=CCCCC3)cc2)[C@H](CO)N1C(=O)NC1CCCCC1
→ -10 | 49 | 0 | 4 | nt
17. CC(C)NC(=O)N1CCCCN2[C@H](CO)[C@H](c3ccc(C#Cc4ccccc4)cc3)[C@H]2C1
→ 13 | nt | -21 | nt | nt
18. COc1ccc(S(=O)(=O)Nc2ccccc2C(=O)NC(C)(C)C)cc1OC
→ 5 | 123* | 4 | -9 | -2
19. COc1ccc(S(=O)(=O)Nc2ccccc2C(=O)OC2CCCN(C)C2)cc1OC (stereo unspecified)
→ -15 | 82* | 7 | nt | 3
20. CN1CCCC(OC(=O)c2ccccc2Br)C1 (stereo unspecified)
→ -10 | 7 | 4 | 1 | 0
21. CCc1nc(N2CCC3(CC2)OCCO3)c2nnn(Cc3ccccc3)c2n1
→ 0 | 13 | -1 | 15 | -1
22. Cc1nc(N2CCCC2)c2nnn(Cc3ccccc3Cl)c2n1
→ -8 | 76* | 4 | 5 | 1
23. Cc1nc(N2CCC3(CC2)OCCO3)c2nnn(Cc3ccccc3F)c2n1
→ 9 | 130* | 5 | nt | -2
24. O=C(Nc1cccc([N+](=O)[O-])c1)OCc1ccc2c(c1)OCO2
→ nt | nt | nt | 3 | nt
25. O=S(=O)(c1cccc2cnccc12)N1CCNCC1
→ -43 | -6 | -12 | 15 | 27*
26. c1ccc(CSc2nnc(-c3ccccn3)n2-c2ccccc2)cc1
→ -4 | 107* | -11 | -6 | 0
27. CC(C)(C)NC(=O)CSc1nnc(-c2ccccn2)n1-c1ccccc1
→ -11 | -9 | 12 | -7 | -3
28. C=CCNC(=O)c1cccn1-c1ccsc1C(=O)OC
→ -8 | 91* | 5 | nt | 0
29. C[C@H](NC(=O)C[C@H]1CC[C@@H]2[C@H](COC[C@H](O)CN2Cc2cc(F)ccc2F)O1)c1ccccc1
→ 4 | 12 | -5 | -9 | nt
30. COCCn1c(C)c(C)c2c(NCCc3ccccc3)ncnc21
→ -36 | -1 | 51* | 5 | 0
31. COc1ccc(Nc2nc3ccc(C)cn3c(=O)c2/C=N/O)cc1
→ -12 | 109* | 12 | 7 | 0
32. Cc1ccc2nc(Nc3ccccc3)c(/C=N/O)c(=O)n2c1
→ 4 | 10 | -10 | nt | 1
33. CCN(CCN(C)C)C(=O)Cn1ncc2c1-c1cc(C)ccc1OC2
→ -19 | -5 | 7 | 6 | 1
34. Cc1ccc2c(c1)-c1c(cnn1CC(=O)O)CO2
→ -22 | 92* | 2 | nt | 3
35. COc1ccc(S(=O)(=O)Nc2cccc3c2O[C@H](CN(C)S(=O)(=O)c2cn(C)cn2)[C@H](C)CN([C@H](C)CO)C3=O)cc1
→ 4 | -13 | 7 | -3 | nt
36. CCOc1cc(CNCc2cccs2)cc(Br)c1OC
→ -16 | 97* | -13 | nt | 2
37. O=C(NC1CCN(C(=O)N2c3ccccc3Sc3ccccc32)CC1)c1ccccc1F
→ -7 | 76* | -12 | nt | -3
38. COc1ccccc1CN1CCCC(C(=O)N(C)Cc2ccccc2)C1 (stereo unspecified)
→ nt | nt | 45* | nt | -2
39. COc1ccc(CN2CCCC(C(=O)N(C)Cc3ccccc3)C2)cc1OC (stereo unspecified)
→ 2 | nt | -6 | nt | 0
40. CSc1nncn1/N=C/c1ccc2c(c1)OCO2
→ -3 | 106* | 17 | -32 | -1
41. Cc1ccc(NC(=O)C2(c3ccccc3)CC2(Cl)Cl)cc1C (stereo unspecified)
→ 4 | 143* | -3 | -2 | -3
42. COc1ccc2c3c(n(C)c2c1)[C@H](CO)NCC31CCN(C(=O)c2cccc(F)c2)CC1
→ nt | nt | 1 | nt | nt
43. Nc1ncnc2nc(SCc3ccccc3)[nH]c12
→ 11 | 99* | -8 | nt | -1
44. Nc1ncnc2nc(-c3ccccc3)[nH]c12
→ -8 | -21 | -8 | 0 | 0
45. CN(C)S(=O)(=O)c1ccc(C(=O)NCCOc2ccc(F)cc2)cc1
→ -20 | 146* | 6 | nt | 1

Complete entries from above. Order of values: UUG fidelity	Statin myotox sup	PGC1a acetyl inh	FN deposition inh	hiPSC survival
CC(C)NC(=O)N1CCCCN2[C@H](CO)[C@H](c3ccc(C#Cc4ccccc4)cc3)[C@H]2C1 in the list: 13	nt	-21	nt	nt
Cc1ccc(C(=O)Nc2cc(Cl)ccc2-n2cncn2)s1 in the list: nt	7	nt	-6	0
CC(C)(C)NC(=O)CSc1nnc(-c2ccccn2)n1-c1ccccc1 in the list: -11	-9	12	-7	-3
Nc1ncnc2nc(-c3ccccc3)[nH]c12 in the list: -8	-21	-8	0	0

More compounds
Value order: UUG fidelity | Statin myotox sup | PGC1a acetyl inh | FN deposition inh | hiPSC survival
46. CCCCCCCCn1ccc(=N)cc1
→ -3 | nt | 4 | -3 | 0
47. CCCCCCCCCCCCCCCCn1cc[n+](C)c1
→ nt | nt | nt | 34* | -6
48. COc1ccc(S(=O)(=O)N2C[C@@H](O)COC[C@H]3O[C@H](CC(=O)NCCN4CCCCC4)CC[C@@H]32)cc1
→ nt | 5 | -7 | 4 | nt
49. C[C@H]1CN([C@@H](C)CO)S(=O)(=O)c2ccc(C#Cc3ccccc3F)cc2O[C@@H]1CN(C)CC1CCOCC1
→ 4 | -2 | -1 | nt | nt
50. CCC1NC(=S)N(C2CCCCC2)C1=O (stereo unspecified)
→ -29 | 2 | 55* | nt | 0
51. Cc1cccc(N2C(=O)C(Cl)=C(N3CCOCC3)C2=O)c1
→ -13 | 2 | 81* | 4 | -1
52. CC(=O)OC[C@]12CC[C@H]3[C@@](C)(CC[C@H]4C(C)(C)CCC[C@]34C)[C@@H]1CC(C1=CC(=O)OC1O)O2 (stereo partly specified)
→ 23 | -303 | 87* | nt | -4
53. CC(=O)N(C)C[C@H]1Oc2ncc(C#CC3(O)CCCC3)cc2C(=O)N([C@H](C)CO)C[C@H]1C
→ -9 | 1 | -2 | -6 | nt

High-throughput results (PubChem)
